As a reminder, the IC50 is the concentration that inhibits the measured activity by half. A low value points to greater potency.

By UniProt entry, the sequences of proteins in these tests, tags left out. Residues count along the entry.
UniProt P22303, 32-614, species assumed: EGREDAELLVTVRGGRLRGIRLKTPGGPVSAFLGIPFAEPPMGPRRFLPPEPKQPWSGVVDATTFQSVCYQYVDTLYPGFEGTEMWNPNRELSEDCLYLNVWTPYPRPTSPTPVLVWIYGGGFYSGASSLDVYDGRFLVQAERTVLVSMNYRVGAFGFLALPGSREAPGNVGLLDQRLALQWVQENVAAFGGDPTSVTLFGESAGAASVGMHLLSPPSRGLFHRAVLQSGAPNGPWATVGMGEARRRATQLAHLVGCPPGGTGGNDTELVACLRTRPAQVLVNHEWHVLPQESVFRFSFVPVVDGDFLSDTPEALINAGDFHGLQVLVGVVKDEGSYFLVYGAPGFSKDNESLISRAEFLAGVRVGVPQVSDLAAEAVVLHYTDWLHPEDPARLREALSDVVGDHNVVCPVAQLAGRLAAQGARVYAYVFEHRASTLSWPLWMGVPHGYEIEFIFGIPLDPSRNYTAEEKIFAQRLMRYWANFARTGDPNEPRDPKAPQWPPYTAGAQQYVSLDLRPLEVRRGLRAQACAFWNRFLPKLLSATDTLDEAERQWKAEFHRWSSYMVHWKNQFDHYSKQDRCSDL

Molecules are shown by their SMILES. Several values for one entry are separate records, joined by “and”; a condition that tells them apart may be missing. Equal values may be shown once.

For the test, the target named is T1, acetylcholinesterase (Homo sapiens, UniProt P22303).
T1 construct: purchased Sigma-Aldrich (St. Louis, MO, USA)
In words: biochemical. The method, then:
For determination of acetylcholinesterase inhibitory activity, HPLC analysis was performed on the same apparatus as determination of alkaloid contents on Polar RP column with mobile phase A containing methanol and 0.0025 M diethylamine, mobile phase B containing acetate buffer at pH 3.8 and 0.0025 M diethylamine, and mobile phase in gradient elution: 0–15 min, 10% A; 15–30 min, 10–70% A; 30–60 min, 70% A. Flow rate was 1 mL/min.
[…] Samples for determination of acetylcholinesterase inhibitory activity were prepared by addition of 50 µL of acetylthiocholine iodide, 50 µL of 5′-dithiobis-(2-nitrobenzoic acid), […], and phosphate buffer at pH 7.8 to obtain 500 µL of final solution. […] All components were mixed and samples were incubated for 15 min at 37 °C. Samples were filtrated by syringe filter (CHROMAFIL Xtra, PVDF-29/25 0.20 µm) and injected into the HPLC system.

With `COc1ccc2cc3[n+](cc2c1OC)CCc1cc2c(cc1-3)OCO2` [Berberine], the IC50 was 1070 nM and 1060 nM.

Values taken from article PMC7796366, “Application of HPLC-DAD for In Vitro Investigation of Acetylcholinesterase Inhibition Activity of Selected Isoquinoline Alkaloids from Sanguinaria canadensis Extracts” (Molecules, 2021).
